Numbering of substitutions follows the chain as printed.
What was measured:
HePTP = target: T1, HePTP (Homo sapiens, UniProt P35236); experiment: Dose-response OMFP phosphatase assay, HePTP; format: biochemical
T1 sequence (P35236 1-360): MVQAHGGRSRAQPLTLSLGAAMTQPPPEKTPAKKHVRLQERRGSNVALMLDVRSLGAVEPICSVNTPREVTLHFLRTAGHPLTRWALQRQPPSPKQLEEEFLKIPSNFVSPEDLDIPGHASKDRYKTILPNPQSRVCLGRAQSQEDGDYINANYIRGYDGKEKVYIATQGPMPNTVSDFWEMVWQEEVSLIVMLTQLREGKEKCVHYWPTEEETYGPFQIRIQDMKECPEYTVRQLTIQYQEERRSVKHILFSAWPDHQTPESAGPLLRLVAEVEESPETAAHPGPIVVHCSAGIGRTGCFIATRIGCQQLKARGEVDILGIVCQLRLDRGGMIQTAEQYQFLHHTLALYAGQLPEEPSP
Method in brief: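 Compound given as a ten-point 2-fold series from DMSO dilutions. Kinetic fluorescence at ex 485/em 528 nm over 10 min; slopes fitted by sigmoidal variable-slope regression for IC50.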

Chains of the proteins cited; added tags and fusions are not shown. Residues count along the entry.
UniProt P10586, 30-1907, species assumed: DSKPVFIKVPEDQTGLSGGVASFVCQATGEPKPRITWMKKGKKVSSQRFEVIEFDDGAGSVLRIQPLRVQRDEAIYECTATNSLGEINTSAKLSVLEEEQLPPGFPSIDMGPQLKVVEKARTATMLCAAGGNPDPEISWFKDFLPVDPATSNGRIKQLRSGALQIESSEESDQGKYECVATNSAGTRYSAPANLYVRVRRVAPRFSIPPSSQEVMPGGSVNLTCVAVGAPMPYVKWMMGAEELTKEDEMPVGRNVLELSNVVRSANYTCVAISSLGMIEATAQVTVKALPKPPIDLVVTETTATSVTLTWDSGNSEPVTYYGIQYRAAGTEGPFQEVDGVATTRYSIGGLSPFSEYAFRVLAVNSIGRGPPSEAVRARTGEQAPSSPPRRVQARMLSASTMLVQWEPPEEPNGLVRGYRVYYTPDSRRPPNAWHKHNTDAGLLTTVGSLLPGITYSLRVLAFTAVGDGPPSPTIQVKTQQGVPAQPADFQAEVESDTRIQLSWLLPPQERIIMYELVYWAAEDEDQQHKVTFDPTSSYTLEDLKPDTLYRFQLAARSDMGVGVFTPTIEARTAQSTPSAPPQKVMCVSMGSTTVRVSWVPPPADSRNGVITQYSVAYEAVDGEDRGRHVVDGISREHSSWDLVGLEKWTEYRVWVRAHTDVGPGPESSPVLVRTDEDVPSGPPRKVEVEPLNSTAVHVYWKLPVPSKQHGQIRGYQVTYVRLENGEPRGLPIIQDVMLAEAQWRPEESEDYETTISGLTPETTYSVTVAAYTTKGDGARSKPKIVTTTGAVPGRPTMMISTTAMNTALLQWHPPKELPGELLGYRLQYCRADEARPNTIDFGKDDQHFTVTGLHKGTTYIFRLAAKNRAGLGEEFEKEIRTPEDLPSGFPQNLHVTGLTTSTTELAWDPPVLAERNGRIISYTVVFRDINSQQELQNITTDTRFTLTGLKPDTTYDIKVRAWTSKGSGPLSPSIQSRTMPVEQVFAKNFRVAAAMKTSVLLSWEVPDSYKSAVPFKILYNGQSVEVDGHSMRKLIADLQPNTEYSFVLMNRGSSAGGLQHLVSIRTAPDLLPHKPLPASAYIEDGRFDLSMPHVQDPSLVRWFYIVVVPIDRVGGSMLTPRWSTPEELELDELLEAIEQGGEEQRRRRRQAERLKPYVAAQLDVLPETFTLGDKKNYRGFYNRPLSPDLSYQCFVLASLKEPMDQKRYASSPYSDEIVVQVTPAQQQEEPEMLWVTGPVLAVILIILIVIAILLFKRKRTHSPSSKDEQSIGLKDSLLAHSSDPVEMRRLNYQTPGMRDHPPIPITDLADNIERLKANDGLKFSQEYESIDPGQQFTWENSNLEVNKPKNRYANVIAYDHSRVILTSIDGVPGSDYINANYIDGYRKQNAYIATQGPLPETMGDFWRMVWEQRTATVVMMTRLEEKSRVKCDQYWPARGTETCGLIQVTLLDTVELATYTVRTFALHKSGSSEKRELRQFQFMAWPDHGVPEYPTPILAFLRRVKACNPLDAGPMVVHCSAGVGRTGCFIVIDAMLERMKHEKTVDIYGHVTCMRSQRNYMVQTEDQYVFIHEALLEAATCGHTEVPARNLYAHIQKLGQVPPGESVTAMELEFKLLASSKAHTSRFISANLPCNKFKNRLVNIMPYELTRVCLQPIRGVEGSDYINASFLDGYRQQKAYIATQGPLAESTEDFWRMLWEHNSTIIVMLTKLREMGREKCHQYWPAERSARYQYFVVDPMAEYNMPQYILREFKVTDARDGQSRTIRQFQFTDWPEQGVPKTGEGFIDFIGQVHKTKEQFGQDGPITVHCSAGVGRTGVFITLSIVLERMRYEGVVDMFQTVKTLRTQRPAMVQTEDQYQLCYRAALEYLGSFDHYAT

HePTP H237A mutant = target: T2, HePTP H237A mutant (Homo sapiens, UniProt P35236, H258A); experiment: Dose-response OMFP phosphatase assay, HePTP H237A mutant; format: biochemical
T2 sequence (P35236 22-360 H258A limits assumed): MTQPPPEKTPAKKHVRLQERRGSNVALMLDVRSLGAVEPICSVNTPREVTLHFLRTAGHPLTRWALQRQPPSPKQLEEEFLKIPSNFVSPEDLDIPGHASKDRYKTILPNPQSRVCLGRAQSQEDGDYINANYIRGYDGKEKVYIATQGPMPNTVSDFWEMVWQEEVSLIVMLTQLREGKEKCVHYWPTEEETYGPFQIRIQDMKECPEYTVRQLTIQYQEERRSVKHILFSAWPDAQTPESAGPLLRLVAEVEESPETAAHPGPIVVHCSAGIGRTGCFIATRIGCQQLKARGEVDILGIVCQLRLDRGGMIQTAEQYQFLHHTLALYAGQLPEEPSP

[1] = target: T3, HePTP-DM (K105A/T106A double mutant) (Homo sapiens, UniProt P35236, K126A/T127A); experiment: Dose-response OMFP phosphatase assay, HePTP K105A/T106A double mutant; format: biochemical
T3 sequence (P35236 22-360 K126A/T127A limits assumed): T2 sequence (P35236 22-360 H258A limits assumed) with K105A, T106A, A237H

[2] = system: ERK1/2 and p38 phosphorylation in splenocytes; experiment: Immunoblot of phosphorylation levels in spleen of mice injected i.p.; format: in vivo, C57B6 mice; conditions: mouse spleen
Method in brief: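 C57B6 mice given test compound i.p. at 3 or 5 mg kg-1, or vehicle; spleens taken 3 h or 6 h later (3 mice per dose and time). Spleen sonicated in Tris pH 7.4 buffer with phosphatase and protease inhibitors; 800 × g supernatant used. Blotted for pS473-AKT, pS23-HePTP, pERK1/2 and pp38, normalised to total protein then GAPDH. ANOVA/Tukey or t-test.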

PTP-SL = target: T4, PTP-SL (Homo sapiens, UniProt Q15256); experiment: Dose-response OMFP phosphatase assay, PTP-SL; format: biochemical; conditions: ratio of IC50 values
T4 sequence (Q15256 22-657): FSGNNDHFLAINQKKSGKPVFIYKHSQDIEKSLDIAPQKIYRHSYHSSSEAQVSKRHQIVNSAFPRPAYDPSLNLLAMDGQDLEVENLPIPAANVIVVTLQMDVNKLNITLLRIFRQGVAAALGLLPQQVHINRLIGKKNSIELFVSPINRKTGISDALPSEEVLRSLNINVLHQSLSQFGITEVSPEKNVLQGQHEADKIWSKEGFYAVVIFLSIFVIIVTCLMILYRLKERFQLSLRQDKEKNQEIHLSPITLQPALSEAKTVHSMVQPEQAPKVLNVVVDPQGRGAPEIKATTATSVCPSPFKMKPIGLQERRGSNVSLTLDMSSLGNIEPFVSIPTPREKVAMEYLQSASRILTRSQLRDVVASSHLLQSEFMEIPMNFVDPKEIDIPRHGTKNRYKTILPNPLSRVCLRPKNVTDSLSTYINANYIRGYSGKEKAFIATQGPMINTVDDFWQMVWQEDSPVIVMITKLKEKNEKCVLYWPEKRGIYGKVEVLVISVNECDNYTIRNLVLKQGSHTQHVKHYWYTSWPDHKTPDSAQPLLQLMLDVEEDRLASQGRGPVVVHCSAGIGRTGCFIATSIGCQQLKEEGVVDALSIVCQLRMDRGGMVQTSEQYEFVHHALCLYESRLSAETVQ

SHP2 = SHP2 (Homo sapiens, UniProt Q06124); experiment: Dose-response OMFP phosphatase assay, SHP2; format: biochemical; conditions: ratio of IC50 values
Method in brief: (§1)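 Ten-point 2-fold dilution series of test compound prepared in DMSO. Fluorescence (ex 485/em 528 nm) read in kinetic mode over 10 min; progress-curve slopes taken as activity. IC50 by nonlinear regression (sigmoidal, variable slope).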

LAR = LAR (Homo sapiens, UniProt P10586); experiment: Dose-response OMFP phosphatase assay, LAR; format: biochemical; conditions: ratio of IC50 values
Method in brief: as §1

[3] = Metabolic stability in rat liver microsomes with NADPH; format: in vitro ADME; conditions: for microsomal stability (compound remaining): NADPH

SMILES: O=C(O)c1ccccc1-c1ccc(/C=c2\sc3nc4cc(Br)cnc4n3c2=O)o1 [Compound 1]
- selectivity for HePTP over the most similar enzymes in the in vitro assay (HePTP): 5–30 fold
- fold less active against H237A mutant compared to wt HePTP (HePTP H237A mutant): more than 13 fold
- fold less active against HePTP-DM compared to wt HePTP [1]: 31 fold
- pp38 level relative to vehicle control ([2]; i.p. 3 mg/kg for 3 h): 1.67 ± 0.16
- pERK1/2 level relative to vehicle control ([2]; i.p. 3 mg/kg for 6 h): 2.26 ± 0.46
- pp38 level relative to vehicle control ([2]; i.p. 3 mg/kg for h (time not given)): 1.75 ± 0.13
- pERK1/2 level relative to vehicle control ([2]; i.p. 5 mg/kg for 6 h): 1.97 ± 0.16
- pp38 level relative to vehicle control ([2]; i.p. 5 mg/kg for 6 h): 2.33 ± 0.33
- selectivity for HePTP over PTP-SL (PTP-SL): 5 fold
- selectivity for HePTP over SHP2 (SHP2): 5 fold
- selectivity for HePTP over LAR (LAR): 348 fold
- metabolites in microsomal stability assay ([3]; LC/MS): no major metabolite
- microsomal stability (compound remaining) ([3]; rat liver microsomes, after 15 min): 86.2 ± 2.7%
- microsomal stability (compound remaining) ([3]; rat liver microsomes, after 30 min): 71.0 ± 2.9%
- microsomal stability (compound remaining) ([3]; rat liver microsomes, after 45 min): 53.0 ± 1.4%
- microsomal half-life t1/2 ([3]; rat liver microsomes, first order kinetics assumed): 50 min

From article PMC3288537 (ACS Chemical Biology, 2011)
